# Yeast mating assay B: variants of the scFv Ab-14

Data: MIT Lincoln Laboratory AlphaSeq set, Li et al. 2023, doi:10.1038/s41467-023-39022-2, as distributed in FLAb.

The target is the same throughout: PDVDLGDISGINAS, from the HR2 region of SARS-CoV-2 spike.

Each scFv is VH, the linker GGGGSGGGGSGGGGS, VL, as in the parent Ab-14, and differs from it in the CDRs of the light chain only.
VH: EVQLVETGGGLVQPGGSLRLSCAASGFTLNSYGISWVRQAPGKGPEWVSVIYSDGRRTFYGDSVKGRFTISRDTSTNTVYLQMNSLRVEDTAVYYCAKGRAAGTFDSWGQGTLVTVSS
VL: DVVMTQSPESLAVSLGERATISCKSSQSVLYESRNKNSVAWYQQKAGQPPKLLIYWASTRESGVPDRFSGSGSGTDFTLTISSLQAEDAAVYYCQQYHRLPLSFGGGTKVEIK

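The variants were designed computationally from a first round of random CDR variants and then made and measured. Their group label is 14L_En_Gen (En: ensemble of fine-tuned language models; Gen: genetic algorithm). In AlphaSeq, yeast of one mating type display the scFv and yeast of the other type display the target. After mating in shaken culture at 30 °C for 16 h, diploids were selected and their barcode pairs sequenced. Read counts were normalised to the haploid input and turned into Kd by a linear fit to BCL2-family pairs of known affinity, for each replicate. Mating was done six times.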

Sequences are complete VL domains. Numbers give log10(Kd / nM), so 0 is 1 nM and 3 is 1 µM. Smaller is tighter. A mean of the replicates is given; it leaves out those without a signal. Where no diploid with the target was found in that replicate, the entry reads "ND": below detection, most likely a poor binder, though not proof of it. The parent sequence was in this pool as ten entries: three were never detected, three once, and four in most replicates, with averages from 0.34 to 2.37. Values of this round are not directly comparable with the first-round values of the same sequences. The authors' rule: three or more of the six replicates give a measured affinity, fewer mean a poor binder. Three control strains display no target. For all light chain designs, 4% of the pairings with them gave a signal, with a median of 2.64 and one signal in twenty below 1.59, so weak values seen in few replicates may be background. For each scFv, signals with the empty controls are counted beside the result, with their mean in brackets.

{"VL": "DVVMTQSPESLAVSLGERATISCTIGGTLMYGVRNRSNVAWYQQKAGQPPKLLIYEVSQRLNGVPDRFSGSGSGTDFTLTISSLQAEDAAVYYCQQYDRLPLMFGGGTKVEIK", "replicates, log10 nM": "0.83 0.74 1.10 0.55 0.62 0.97", "log10 Kd (nM), mean": "0.80", "signal with controls": "0 of 18"}
{"VL": "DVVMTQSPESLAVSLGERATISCTISQVMNTMTRHGNNVAWYQQKAGQPPKLLIYDLAERESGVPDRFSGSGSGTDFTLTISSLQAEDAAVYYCQQYFRLPLSFGGGTKVEIK", "replicates, log10 nM": "0.96 0.78 0.55 0.64 0.71 1.41", "log10 Kd (nM), mean": "0.84", "signal with controls": "1 of 18 (1.25)"}
{"VL": "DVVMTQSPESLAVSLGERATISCKIGMVLNQMLHQKNNVAWYQQKAGQPPKLLIYDLVTREQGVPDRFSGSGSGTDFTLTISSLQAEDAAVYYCQQYHRLPLSFGGGTKVEIK", "replicates, log10 nM": "0.37 0.44 0.06 0.05 0.29 0.44", "log10 Kd (nM), mean": "0.27", "signal with controls": "1 of 18 (2.23)"}
{"VL": "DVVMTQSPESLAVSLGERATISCMLYGLSASMSKNKNNVAWYQQKAGQPPKLLIYEMTTREVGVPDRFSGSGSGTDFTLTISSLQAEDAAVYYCQQYDRLPLVFGGGTKVEIK", "replicates, log10 nM": "ND ND ND ND 1.70 ND", "log10 Kd (nM), mean": "1.70", "signal with controls": "1 of 18 (2.23)"}
{"VL": "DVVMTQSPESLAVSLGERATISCKISQMTRVGSTHSNSIAWYQQKAGQPPKLLIYEEVTRAKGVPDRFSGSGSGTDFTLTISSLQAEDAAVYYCQQYHRLPLAFGGGTKVEIK", "replicates, log10 nM": "0.37 1.37 1.07 2.17 1.38 1.20", "log10 Kd (nM), mean": "1.26", "signal with controls": "1 of 18 (2.16)"}
{"VL": "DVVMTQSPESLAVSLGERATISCKVSEFMRGLMQRTDSIAWYQQKAGQPPKLLIYDNVTRGNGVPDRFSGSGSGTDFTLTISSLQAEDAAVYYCQQYDRLPLSFGGGTKVEIK", "replicates, log10 nM": "ND ND 2.32 ND ND ND", "log10 Kd (nM), mean": "2.32", "signal with controls": "0 of 18"}
{"VL": "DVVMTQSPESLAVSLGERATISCTISQVMNTLTRHGNNVAWYQQKAGQPPKLLIYDLAEREDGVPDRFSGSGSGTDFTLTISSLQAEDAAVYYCQQYYRLPLSFGGGTKVEIK", "replicates, log10 nM": "0.50 0.24 0.42 0.11 0.25 0.43", "log10 Kd (nM), mean": "0.32", "signal with controls": "1 of 18 (2.53)"}
{"VL": "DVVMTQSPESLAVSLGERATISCHMSAVTMLGMRQRNSVAWYQQKAGQPPKLLIYQMTTRENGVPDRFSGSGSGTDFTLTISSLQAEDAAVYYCQQYDRLPLAFGGGTKVEIK", "replicates, log10 nM": "0.65 0.64 1.01 0.81 0.81 0.84", "log10 Kd (nM), mean": "0.79", "signal with controls": "2 of 18 (3.03)"}
{"VL": "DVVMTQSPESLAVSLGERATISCMISQLYNMGSFAINSVAWYQQKAGQPPKLLIYQASLRNEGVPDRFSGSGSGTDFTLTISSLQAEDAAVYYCQQYDRLPLMFGGGTKVEIK", "replicates, log10 nM": "1.74 1.27 1.27 0.83 1.03 1.82", "log10 Kd (nM), mean": "1.33", "signal with controls": "2 of 18 (2.81)"}
{"VL": "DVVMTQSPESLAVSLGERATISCMMSQVTGSGTRHRNNVAWYQQKAGQPPKLLIYQTSTREPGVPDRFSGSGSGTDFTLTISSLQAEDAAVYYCQQYDRLPLMFGGGTKVEIK", "replicates, log10 nM": "1.93 1.06 0.73 1.83 1.29 1.45", "log10 Kd (nM), mean": "1.38", "signal with controls": "0 of 18"}
{"VL": "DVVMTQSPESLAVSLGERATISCTIGQTLMTGVRNRSNVAWYQQKAGQPPKLLIYEVSERLNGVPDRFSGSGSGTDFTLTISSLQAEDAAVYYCQQYDRLPLLFGGGTKVEIK", "replicates, log10 nM": "1.41 1.24 0.91 1.00 1.05 1.60", "log10 Kd (nM), mean": "1.20", "signal with controls": "0 of 18"}
{"VL": "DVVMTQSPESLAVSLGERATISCQLYEMNYELSGKTHSVAWYQQKAGQPPKLLIYDNSTRGEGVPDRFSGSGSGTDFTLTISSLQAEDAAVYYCQQYFRLPLEFGGGTKVEIK", "replicates, log10 nM": "0.97 0.59 0.69 0.63 0.35 0.68", "log10 Kd (nM), mean": "0.65", "signal with controls": "0 of 18"}
{"VL": "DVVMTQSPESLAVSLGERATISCHITYGMLVSGRHTSNIAWYQQKAGQPPKLLIYQAETRAKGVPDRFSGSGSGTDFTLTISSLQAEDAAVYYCQQYDRLPLIFGGGTKVEIK", "replicates, log10 nM": "ND 0.92 ND ND 1.20 ND", "log10 Kd (nM), mean": "1.06", "signal with controls": "0 of 18"}
{"VL": "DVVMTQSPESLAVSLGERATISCHVSMLTMMGMKQRNSVAWYQQKAGQPPKLLIYQMTLRENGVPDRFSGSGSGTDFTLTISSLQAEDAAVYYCQQYDRLPLMFGGGTKVEIK", "replicates, log10 nM": "0.29 0.48 0.30 0.19 0.13 0.44", "log10 Kd (nM), mean": "0.30", "signal with controls": "0 of 18"}
{"VL": "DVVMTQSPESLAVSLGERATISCMVSQLYNMGQFAINSVAWYQQKAGQPPKLLIYQASTRNEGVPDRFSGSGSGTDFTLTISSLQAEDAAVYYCQQYDRLPLMFGGGTKVEIK", "replicates, log10 nM": "1.03 0.55 1.01 0.46 1.45 1.07", "log10 Kd (nM), mean": "0.93", "signal with controls": "2 of 18 (2.50)"}
{"VL": "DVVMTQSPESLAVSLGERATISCKLAMITGLEKVSGNNVAWYQQKAGQPPKLLIYEMETRERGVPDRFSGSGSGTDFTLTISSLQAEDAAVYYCQQYNRLPLSFGGGTKVEIK", "replicates, log10 nM": "0.39 0.17 0.35 0.43 0.10 0.39", "log10 Kd (nM), mean": "0.31", "signal with controls": "1 of 18 (2.34)"}
{"VL": "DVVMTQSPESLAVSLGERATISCHLGLATMLEETVRNSVAWYQQKAGQPPKLLIYNNSTREDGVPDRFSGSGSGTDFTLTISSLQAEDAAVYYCQQYDRLPLSFGGGTKVEIK", "replicates, log10 nM": "1.12 0.97 1.21 0.50 1.06 0.94", "log10 Kd (nM), mean": "0.96", "signal with controls": "1 of 18 (3.16)"}
{"VL": "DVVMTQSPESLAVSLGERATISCMISQLWNMGTFAINSVAWYQQKAGQPPKLLIYQASIRNAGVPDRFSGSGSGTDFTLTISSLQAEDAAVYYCQQYDRLPLAFGGGTKVEIK", "replicates, log10 nM": "ND ND 0.87 0.80 ND 2.16", "log10 Kd (nM), mean": "1.28", "signal with controls": "0 of 18"}
{"VL": "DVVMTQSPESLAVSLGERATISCMISMNIYGLYRNRDNVAWYQQKAGQPPKLLIYHGSMRENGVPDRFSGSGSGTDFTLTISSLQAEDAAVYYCQCYDRLPLSFGGGTKVEIK", "replicates, log10 nM": "0.79 1.15 0.93 0.74 1.59 1.39", "log10 Kd (nM), mean": "1.10", "signal with controls": "0 of 18"}
{"VL": "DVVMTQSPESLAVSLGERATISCKVSEFMRGLMGRKDSIAWYQQKAGQPPKLLIYDNNTRQAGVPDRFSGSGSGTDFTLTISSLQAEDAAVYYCQQYDRLPLSFGGGTKVEIK", "replicates, log10 nM": "1.72 2.31 0.63 0.93 ND 1.97", "log10 Kd (nM), mean": "1.51", "signal with controls": "1 of 18 (1.73)"}
{"VL": "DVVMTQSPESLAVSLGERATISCHMSMLTMMGSRHRNSVAWYQQKAGQPPKLLIYQMTTRENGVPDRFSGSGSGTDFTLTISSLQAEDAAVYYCQQYDRLPLMFGGGTKVEIK", "replicates, log10 nM": "0.89 1.01 1.27 0.57 0.89 0.78", "log10 Kd (nM), mean": "0.90", "signal with controls": "2 of 18 (2.66)"}
{"VL": "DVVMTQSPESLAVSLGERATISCMIHEVMGSVSHKQSSIAWYQQKAGQPPKLLIYDNSTRESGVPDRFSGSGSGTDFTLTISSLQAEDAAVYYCQQYDRLPLSFGGGTKVEIK", "replicates, log10 nM": "ND ND ND ND ND ND", "log10 Kd (nM), mean": "ND", "signal with controls": "0 of 18"}
{"VL": "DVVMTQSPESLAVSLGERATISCMISQVMNTLTRHGNNVAWYQQKAGQPPKLLIYDLEERESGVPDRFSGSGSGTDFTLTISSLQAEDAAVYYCQQYFRLPLSFGGGTKVEIK", "replicates, log10 nM": "0.84 1.25 ND 0.66 0.93 ND", "log10 Kd (nM), mean": "0.92", "signal with controls": "1 of 18 (0.17)"}
{"VL": "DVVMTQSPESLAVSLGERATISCMISQLMNMGTFAINSVAWYQQKAGQPPKLLIYQASIRNQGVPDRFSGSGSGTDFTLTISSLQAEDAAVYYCQQYDRLPLAFGGGTKVEIK", "replicates, log10 nM": "ND ND ND ND ND 2.10", "log10 Kd (nM), mean": "2.10", "signal with controls": "0 of 18"}
{"VL": "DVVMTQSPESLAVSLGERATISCMISQLMNLGQFAINSVAWYQQKAGQPPKLLIYQATIRNAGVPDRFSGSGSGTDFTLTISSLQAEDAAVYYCQQYDRLPLAFGGGTKVEIK", "replicates, log10 nM": "ND ND 1.27 2.09 1.70 1.71", "log10 Kd (nM), mean": "1.69", "signal with controls": "0 of 18"}